Measured values as given in ChEMBL document CHEMBL1201862, “PubChem BioAssay data set” (2004).

Sequences of proteins named here, by UniProt entry; tags and fusion partners are left off. A change or cut given only in a name is not applied to a line headed by its entry.
UniProt P37231: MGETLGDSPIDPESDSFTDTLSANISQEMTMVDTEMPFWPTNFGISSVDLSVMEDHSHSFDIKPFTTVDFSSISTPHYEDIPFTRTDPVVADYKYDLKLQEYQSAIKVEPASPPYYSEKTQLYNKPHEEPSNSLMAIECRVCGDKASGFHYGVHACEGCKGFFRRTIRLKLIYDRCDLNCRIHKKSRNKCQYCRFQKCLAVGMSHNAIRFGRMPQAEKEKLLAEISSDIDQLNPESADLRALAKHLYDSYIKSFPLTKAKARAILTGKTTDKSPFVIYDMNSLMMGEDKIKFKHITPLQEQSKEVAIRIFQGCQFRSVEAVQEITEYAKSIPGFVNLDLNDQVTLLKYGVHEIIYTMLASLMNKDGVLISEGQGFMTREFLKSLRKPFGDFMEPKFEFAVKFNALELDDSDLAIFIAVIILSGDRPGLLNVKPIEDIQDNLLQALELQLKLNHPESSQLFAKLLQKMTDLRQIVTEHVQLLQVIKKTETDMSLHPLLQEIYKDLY

Assays:
[1] = target: Peroxisome proliferator-activated receptor gamma/Nuclear receptor coactivator 1 (Homo sapiens, UniProt P37231); assay: (§1) TR-FRET dose response biochemical High Throughput Screening assay for agonists of the steroid receptor coactivator 1 (SRC-1) recruitment by the peroxisome proliferator-activated receptor gamma (PPAR gamma): non-selective agonists. [Related pubchem assays (depositor defined):AID1300, AID1808, AID504735, AID631]; type: protein assay
[2] = target: Peroxisome proliferator-activated receptor gamma/Nuclear receptor coactivator 3 (Homo sapiens, UniProt P37231); assay: as §1, with “3 (SRC-3)” for “1 (SRC-1)”, “assays: 1301 (Confirmation screen.), 1048 (Primary screen.)]” for “assays (depositor defined):AID1300, AID1808, AID504735, AID631]”; type: functional
[3] = target: Peroxisome proliferator-activated receptor gamma/Nuclear receptor coactivator 2 (Homo sapiens, UniProt P37231); assay: TR-FRET dose response biochemical High Throughput Screening assay for agonists of the steroid receptor coactivator 2 (SRC-2) recruitment by the peroxisome proliferator-activated receptor gamma (PPAR gamma): non-selective agonists. [Related pubchem assays: 1297, 1032 ]; type: functional

EC50 [1]: active: 958 nM
EC50 [2]: active: 3060 nM
EC50 [3]: active: 742 nM
SMILES: CN(C)c1ccc2nc3ccc(=[N+](C)C)cc-3sc2c1 [METHYLENE BLUE ANHYDROUS]

Activity calls are given as the source filed them. Rule as the data show it: active = EC50 of 10 µM or less and inactive = more.
